Screening results from PubChem BioAssay.
GIV Gai3 FP: blocks GIV peptide binding to rat Galpha-i3. P08753. Galpha-i3/FITC-GIV peptide fluorescence polarization, 90 min; hits give low values; scaled: aluminum fluoride 0%, vehicle 100%. percent of control (FP), % (concentration not given with the values). actives 0.42% (n = 210,000). AID 1224905;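 active = replicate mean at 85% of control or lower, very high polarization wells dropped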;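 also: wells of about 15 µL received 100 nL stock; the first replicate is given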
HCMV UL50-53 inh: cytomegalovirus nuclear egress complex inhibition | HTRF UL50-UL53 interaction, normalized percent inhibition | actives 0.15% (n = 190,000) | AID 1918969 | inhibition, % (no concentration beside the values); in the data active means inhibition above about 27%, passing the limit was not always enough
Each line names hits and unclear results; the compound was inactive in the other large screens. Only a selection was taken, and hits are over-represented in it overall.

CCOC(=O)C1=C(C)NC2(O)c3ccccc3C(=O)C12O (centres undefined)	none (no result: HCMV UL50-53 inh)
CC1=C(C(=O)OCc2ccccc2)C2(O)C(=O)c3ccccc3C2(O)N1 (centres undefined)	HCMV UL50-53 inh 66 (no result: GIV Gai3 FP)
CCCOc1ccc(N)cc1OCCC	none (no result: GIV Gai3 FP)
OC[C@H]1OC([S-])[C@H](O)[C@@H](O)[C@@H]1O.[Au+] (some centres undefined)	HCMV UL50-53 inh 58 (no result: GIV Gai3 FP)
OCC1OC(Oc2ccccc2)C(O)C(O)C1O (centres undefined)	none
CCOC(=O)N1CCN(C(=O)C2CCC(=O)N2C(C)C)CC1 (centres undefined)	none (no result: GIV Gai3 FP)
CCCCN(CC)c1ncc(C(=O)O)cc1NS(=O)(=O)c1ccc(Br)cc1	none
CCN(CC)c1ncc(C(=O)O)cc1NS(=O)(=O)c1ccc(Br)cc1	GIV Gai3 FP 85
CC(c1ccco1)N(C(=O)C12CC3CC(CC(C3)C1)C2)c1ccccn1 (centres undefined)	none (no result: GIV Gai3 FP)
O=C(Cn1c(=O)n(-c2ccccc2)c(=O)c2ccc(C(=O)NCc3ccc4c(c3)OCO4)cc21)Nc1ccc(F)c(Cl)c1	none
CC(=O)N1N=C(c2ccccc2)CC1c1cc2cc3c(cc2nc1Cl)OCO3 (centres undefined)	none
CCS(=O)(=O)N1N=C(c2ccccc2)CC1c1cc2cc3c(cc2nc1Cl)OCCO3 (centres undefined)	GIV Gai3 FP -53 (no result: HCMV UL50-53 inh)
Cc1noc(C)c1S(=O)(=O)N1CCC(C(C)C(=O)NCCc2c[nH]c3ccccc23)CC1 (centres undefined)	none (no result: HCMV UL50-53 inh)
C=C(C)CN(CC)c1nc(N)c2c(N)nc3c(c2c1C#N)CC(=O)N3C12CC3CC(CC(C3)C1)C2	none (no result: GIV Gai3 FP)
N#Cc1c(N2CCCC(O)C2)nc(N)c2c(N)nc3c(c12)CC(=O)N3C12CC3CC(CC(C3)C1)C2 (centres undefined)	HCMV UL50-53 inh 80 (no result: GIV Gai3 FP)
Cc1ccc(S(=O)(=O)Nc2c(C)nc3nc(C)[nH]n3c2=O)c(C)c1	none
CCCCCCCCCCCCCCCCOCC(CO)OC(C)=O (centres undefined)	none (no result: GIV Gai3 FP)
N#CC1=C(N)SC(N)=C(C#N)C1c1ccccc1	GIV Gai3 FP -0.3
N#CC1=C(N)SC(N)=C(C#N)C1c1ccncc1	none (no result: GIV Gai3 FP)
O=C(CSc1n[nH]c(=O)n1Cc1ccco1)Nc1ccccc1	none
Cc1nn(CC(=O)Nc2ccc(OC(F)(F)F)cc2)c(=O)c2c(C)n(-c3ccc(Cl)cc3)nc12	none (no result: HCMV UL50-53 inh)
CNC(=O)c1cn2c3c(ccc(Cl)c3c1=O)OC(C)C2 (centres undefined)	HCMV UL50-53 inh 50
CC(C)NC(=O)c1cn2c3c(ccc(Cl)c3c1=O)OC(C)C2 (centres undefined)	none
CCN(c1ccccc1)S(=O)(=O)c1ccc(Oc2ccc(-n3ccnc3)cc2)nc1	none (no result: GIV Gai3 FP)
COc1cccc(C2=CC(c3ccccc3F)n3ncc(C(=O)Nc4ccc(F)cc4)c3N2)c1 (centres undefined)	GIV Gai3 FP -60 (no result: HCMV UL50-53 inh)
COc1ccc(C2=CC(c3ccccc3F)n3ncc(C(=O)Nc4ccc(C)cc4)c3N2)cc1 (centres undefined)	none (no result: HCMV UL50-53 inh)
Cc1ccc(-c2c(C(F)(F)F)nn3c(NCCN4CCOCC4)cc(C)nc23)cc1	none
Oc1ccc2ccccc2c1C=Nc1c(F)c(F)c(F)c(F)c1F	none (no result: GIV Gai3 FP)
Oc1ccc2ccccc2c1/C=N/c1nccs1	HCMV UL50-53 inh 108
Oc1ccc(NC(=S)Nc2ccc(O)cc2)cc1	none
CNc1ccc(O)cc1	HCMV UL50-53 inh 69 (no result: GIV Gai3 FP)
CCOc1ccccc1C1C2=C(CC(c3ccc(O)cc3)CC2=O)Nc2onc(C)c21 (centres undefined)	none
CCOC(=O)C(C(=O)Nc1ccc(N(CC)CC)cc1)C1CCCCC1 (centres undefined)	none (no result: HCMV UL50-53 inh)
CCOC(=O)C1=C(C)N=c2s/c(=C\c3cc(Br)c(O)c(OC)c3)c(=O)n2C1c1cccs1 (centres undefined)	GIV Gai3 FP 77
CCOC(=O)C1=C(C)N=c2s/c(=C\c3cc(OC)c(OC)c(OC)c3)c(=O)n2C1c1ccc2c(c1)OCO2 (centres undefined)	none
CCOC(=O)C1=C(C)N=c2s/c(=C\c3cc(Br)c(O)c(OC)c3)c(=O)n2C1c1ccc2c(c1)OCO2 (centres undefined)	GIV Gai3 FP -57
CCOC(=O)C1=C(C)N=c2s/c(=C\c3cc(Br)c(OC)cc3OC)c(=O)n2C1c1cccs1 (centres undefined)	none
Cc1cc(C)c2nc(C(F)(F)F)nc(N3CCN(c4ccccc4F)CC3)c2c1	none
CCC1CCCCN1C(=O)CN1C(=O)CSc2ccc(S(=O)(=O)N(CC)CC)cc21 (centres undefined)	none
Cc1ccc(NC(=O)c2cc3ccccc3oc2=N)cc1	none (no result: HCMV UL50-53 inh)
N#Cc1ccc(NC(=O)c2ccc(Br)cc2)cc1	none (no result: GIV Gai3 FP)
CCOC(=O)c1ccc(NC(=O)c2cc3cc(Cl)ccc3oc2=N)cc1	none
N#Cc1ccc(NC(=O)c2cc3cc4c5c(c3oc2=N)CCCN5CCC4)cc1	GIV Gai3 FP -14 (no result: HCMV UL50-53 inh)
CCOC(=O)c1ccc(NC(=O)c2cc3cc4c5c(c3oc2=N)CCCN5CCC4)cc1	GIV Gai3 FP -14
N=c1oc2c3c4c(cc2cc1C(=O)Nc1ccccc1)CCCN4CCC3	GIV Gai3 FP -62
COCc1cc(C)nc2sc3c(=O)n(-c4cc(Br)cc5cccnc45)nnc3c12	none (no result: HCMV UL50-53 inh)
O=C(NCc1ccc(F)cc1)c1cc2c(=O)[nH]c3ccccc3c2s1	none
Cc1nc2ccccc2nc1OCC(=O)Nc1ccccc1	none (no result: GIV Gai3 FP)
N#Cc1c(-c2ccc3c(c2)OCO3)cc(-c2ccc(F)cc2)nc1N	none
N#Cc1c(N)oc(-c2ccc3c(c2)OCO3)c1-c1ccc2c(c1)OCO2	GIV Gai3 FP -54
CCOC(=O)C1=C(O)/C(=C/c2ccc(N3CCOCC3)o2)SC1=Nc1ccc(OCC)cc1	GIV Gai3 FP -15
CCOC(=O)C1=C(O)/C(=C/c2ccc(OCC)cc2)SC1=Nc1ccccc1	none (no result: HCMV UL50-53 inh)
CN(C)C(=O)COc1ccc2c(-c3ccccc3)cc(=O)oc2c1	none (no result: GIV Gai3 FP)
COc1ccc(N(C=O)/C=C2\Sc3ccccc3C2=O)cc1	GIV Gai3 FP -15
COc1ccc(N(/C=C2\Sc3ccccc3C2=O)C(=O)c2ccco2)cc1	none
CC(C)(C)c1ccc(/C(N)=N/O)cc1	none
O=C(O)c1ccc2c(c1)C1C=CCC1C(c1cccc3ccccc13)N2 (centres undefined)	HCMV UL50-53 inh 35
COC(=O)c1ccc2c(c1)C1C=CCC1C(c1cccc3ccccc13)N2 (centres undefined)	none
O=S(=O)(NC1CCCCCCC1)c1cnc[nH]1	none
C=CCn1c(=O)/c(=C2/Sc3ccccc3N2CC)s/c1=C1\SC(=S)N(C)C1=O	none (no result: HCMV UL50-53 inh)
C=CCn1c(=O)/c(=C2/Sc3ccc(OC)cc3N2CC)s/c1=C1\SC(=S)N(CCCC)C1=O	GIV Gai3 FP 42 (no result: HCMV UL50-53 inh)
CSc1nc(NC(C)C)c(C#N)c(-c2ccccc2)n1	HCMV UL50-53 inh 29
CSc1nc(NCc2ccccc2)c(C#N)c(-c2ccccc2)n1	none
CN(C)c1ccc(/C=C2/C(=O)c3ccc(C(=O)O)cc3C2=O)cc1	GIV Gai3 FP -73
CC(C)(C)C1(C)OC(=O)C(=Cc2ccc(C(=O)O)cc2)C(=O)O1 (centres undefined)	none
Cc1cccc(C)c1NC(=O)c1cc(-c2ccccn2)n[nH]1	none
CCOC(=O)C1=C(O)c2ccccc2C1=O	none (no result: HCMV UL50-53 inh)
CCOC(=O)c1c2c(n3ccccc13)C(=O)c1ccccc1C2=O	GIV Gai3 FP -42 (no result: HCMV UL50-53 inh)
CCN1C(=O)c2cc(C(=O)NC)nn2CC1(C)C(=O)NC1CCCC1 (centres undefined)	none
N#CC(C#N)=Cc1ccc(-c2ccc3c(c2)COC3=O)o1	none
